{
  "source": "paper PMC6754406",
  "about": "“Ran pathway-independent regulation of mitotic Golgi disassembly by Importin-α” (Nature Communications, 2019)",
  "molecular_target": "Importin-β, recombinant, non-tagged (human) (UniProt Q14974)",
  "experiment": "pull-down; GST-GM130 (WT or S25D) with His-tagged RanQ69L and Importin-α FL or Importin-β at a molar ratio of 1:4:1 GM130:RanQ69L:Importin, or without RanQ69L; SDS-PAGE, Coomassie blue",
  "data": [
    {"substance": "RanQ69L (a constitutively active mutant), His-tagged (from UniProt P62826 1-216) (enzyme; other documents disagree on this pair)", "values": [
      {"measurement": "fold reduction of Importin-β pulldown by GST-GM130-S25D with RanQ69L", "result": 9, "unit": "fold"},
      {"measurement": "percent of Importin-β released from GST-GM130-S25D by RanQ69L", "result": 70, "unit": "%"},
      {"measurement": "percent of Importin-β released from GST-GM130-WT by RanQ69L", "result": 47, "unit": "%"}
    ]}
  ]
}
